# Earlier results in US5264431A, “Polycyclic conjugates” (Ciba-Geigy Corp., priority 1991, dated 1993).
# System: yeast-like microorganisms and fungi
compound,measurement,value
CN[C@@H]1C[C@H]2O[C@@](C)([C@@H]1OC)n1c3ccccc3c3c4c(c5c6ccccc6n2c5c31)C(=O)NC4 [staurosporin],MIC,3 to 25 µg/mL
